By UniProt entry, the sequences of proteins in these tests, tags left out. Residues count along the entry.
UniProt P04141, 18-144 limits assumed: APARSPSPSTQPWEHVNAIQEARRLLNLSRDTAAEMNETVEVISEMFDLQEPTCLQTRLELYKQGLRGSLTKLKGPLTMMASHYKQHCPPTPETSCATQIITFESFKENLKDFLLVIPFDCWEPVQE

In patent KR20210021153A:

Target: 과립구-매크로파지 콜로니-자극 인자 (GM-CSF) (human) (UniProt P04141)
Experiment: cell-based or functional assay

억제: TF-1 세포 증식, STAT5 포스포릴화, 다형핵 호중구 (PMN) 이동, CD11b의 PMN 상향-조절, MHC II의 단핵구 상향-조절, 호산구 생존율 (GM-CSF 1 ng/ml 이하): 0.2 µg/mL
Substance: MOR103 (antibody)
